{
  "sequences": {"note": "Amino acid sequences for entries named in this document (tags omitted). A change or cut given only in a name is not applied to a line headed by its entry.", "UniProt P08473": "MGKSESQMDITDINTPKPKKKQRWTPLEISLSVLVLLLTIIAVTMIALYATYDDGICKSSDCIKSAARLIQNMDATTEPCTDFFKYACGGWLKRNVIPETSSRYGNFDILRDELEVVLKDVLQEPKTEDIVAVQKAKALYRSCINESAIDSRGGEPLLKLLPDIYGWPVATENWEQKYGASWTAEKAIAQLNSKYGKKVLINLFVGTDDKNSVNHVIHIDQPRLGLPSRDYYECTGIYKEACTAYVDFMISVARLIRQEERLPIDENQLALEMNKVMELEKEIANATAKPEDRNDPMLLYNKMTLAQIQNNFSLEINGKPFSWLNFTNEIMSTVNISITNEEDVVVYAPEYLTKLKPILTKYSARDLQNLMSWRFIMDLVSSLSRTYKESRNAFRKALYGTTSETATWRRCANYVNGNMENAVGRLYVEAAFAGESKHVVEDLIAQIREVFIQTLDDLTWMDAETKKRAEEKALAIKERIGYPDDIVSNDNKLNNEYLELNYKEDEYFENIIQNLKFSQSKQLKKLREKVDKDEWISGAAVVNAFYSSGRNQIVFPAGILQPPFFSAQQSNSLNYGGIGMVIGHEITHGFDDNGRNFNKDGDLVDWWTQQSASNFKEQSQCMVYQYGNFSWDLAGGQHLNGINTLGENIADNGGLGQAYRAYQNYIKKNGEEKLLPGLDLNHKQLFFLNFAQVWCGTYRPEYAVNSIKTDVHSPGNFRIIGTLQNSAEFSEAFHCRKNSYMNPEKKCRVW", "UniProt P27487, whole entry": "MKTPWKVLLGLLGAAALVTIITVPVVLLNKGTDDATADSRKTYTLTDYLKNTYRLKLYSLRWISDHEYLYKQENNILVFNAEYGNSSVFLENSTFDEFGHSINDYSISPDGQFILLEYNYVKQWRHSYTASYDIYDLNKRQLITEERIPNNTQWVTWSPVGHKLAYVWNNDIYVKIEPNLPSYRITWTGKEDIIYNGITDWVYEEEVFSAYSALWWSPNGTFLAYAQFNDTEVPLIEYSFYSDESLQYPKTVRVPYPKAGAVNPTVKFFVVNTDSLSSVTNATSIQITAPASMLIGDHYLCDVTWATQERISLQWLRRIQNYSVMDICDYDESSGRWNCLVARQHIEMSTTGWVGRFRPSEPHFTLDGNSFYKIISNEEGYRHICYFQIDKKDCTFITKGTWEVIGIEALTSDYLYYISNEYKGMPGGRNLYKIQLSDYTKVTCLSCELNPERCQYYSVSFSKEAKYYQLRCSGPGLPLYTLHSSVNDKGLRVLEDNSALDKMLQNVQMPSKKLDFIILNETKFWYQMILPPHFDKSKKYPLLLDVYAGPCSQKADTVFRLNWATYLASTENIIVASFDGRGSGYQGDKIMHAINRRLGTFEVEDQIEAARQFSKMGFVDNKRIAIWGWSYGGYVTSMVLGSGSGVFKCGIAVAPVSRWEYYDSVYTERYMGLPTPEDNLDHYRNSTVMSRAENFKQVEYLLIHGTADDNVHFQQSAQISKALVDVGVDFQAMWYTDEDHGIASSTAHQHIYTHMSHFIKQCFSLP"},
  "source": "patent US6767887B1",
  "about": "“Exendin analogues, processes for their preparation and medicaments containing them” (Roche Diagnostics GmbH, priority 1999, dated 2004)",
  "key": {"[1]": {"target": "T1, human neutral endopeptidase 24.11 (Homo sapiens, UniProt P08473)", "T1 construct": "purchased Genentech (San Francisco, USA)", "test": "Degradation by human neutral endopeptidase 24.11 (HPLC)", "type": "in vitro ADME", "settings": "incubation with neutral endopeptidase 24.11, HEPES pH 7.4"}, "[2]": {"target": "dipeptidyl peptidase IV (DDP-IV) (Homo sapiens, UniProt P27487)", "settings": "at the time the incubation was ended"}, "[3]": {"test_system": "brush border microvilli membranes (BBM)", "settings": "HEPES pH 7.4"}},
  "data": [
    {"substance": "GLP-1-(7-36)-NH2 [GLP1-(7-36)-NH2, reference compound]", "values": [
      {"measurement": "Degradation rate", "setting": "[1]", "value": 0.0586, "unit": "mM/100 ng/ml NEP24.11/min"},
      {"measurement": "Substrate for DDP-IV (proteolysis)", "setting": "[2]", "value": 50, "unit": "% proteolysis"},
      {"measurement": "Degradation rate", "setting": "[3]", "value": 880.00, "unit": "ng peptide/min/mg BBM"}
    ]}
  ]
}
